From patent US20250041415A1, “CYTOTOXIC INNATE LYMPHOID CELL AND USES THEREOF” (Umoja Biopharma, Inc., priority 2021, published 2025)

Tested on: Vδ2+ T cells transduced with RACR-FRB-mCherry
Assay: RACR-expansion of blood-derived Vδ2+ T cells
Assay type: cell-based, human
Conditions: IL-2 500 IU/mL
Procedure: On day 0, peripheral blood monocular cells (PBMCs) were cultured in a 37° C. incubator with 5 μM Zometa and IL-2 (500 IU/mL) in complete RPMI (cRPMI) media containing RPMI1640, 10% FBS, 1× Pen-Strep, and 1× Glutamax for initial in vitro expansion. On day 5, the cells were washed in cRPMI and transduced with lentivirus containing RACR-FRB-mCherry (described in Example 5; at an MOI of 10 in the presence of IL-2 (500 IU/mL). Cells were split in cRPMI media containing 500 IU/mL IL-2 every 2-3 days. An aliquot was collected and initial transduction of cells was assessed by mCherry via flow cytometry on day 9.
Vδ2+ T cells were then cultured in wells containing fresh cRPMI with either IL-2 (500 IU/mL), Rapamycin (10 nM), or AP21967 (A/C Heterodimerizer-Takara®, 10 nM) to initiate RACR signaling for an additional 5 days. On day 14, an aliquot of the cells was collected and washed, stained for V32, and RACR transduction was measured by mCherry. Percent Vδ2+ RACR+ cells, as well as number of transduced V32+ cells measured by counting beads was assessed by detection of V82 stain and mCherry via flow cytometry. Similarly, on day 21, an aliquot of cells was again measured for percent and number of Vδ2+ RACR+ cells via flow cytometry.

IL-2: interleukin 2, comparator cytokine
total number of transduced Vδ2+ cells, day 21 compared to day 14: lower total number of transduced Vδ2+ cells
